# Antibody variant affinities, Ab-14 heavy chain, assay B

From the AlphaSeq antibody data of Li et al. 2023 (doi:10.1038/s41467-023-39022-2), copy in the FLAb collection.

Target peptide (SARS-CoV-2 spike, HR2 region): PDVDLGDISGINAS

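This is the validation round: designs drawn from the data on random variants, tested in the same kind of assay. Their group label is 14H_En_Gen (En: ensemble of fine-tuned language models; Gen: genetic algorithm). The assay is AlphaSeq: two haploid yeast populations carry antibody and antigen on their surface. Binding brings cells together so that they mate, and sequencing counts the barcode pairs among the diploids. Scores were corrected for input abundance and mapped to Kd with protein pairs of known affinity run in the same pool. Mating was done six times.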

Each scFv is VH, a 15-residue (Gly4Ser)3 linker, VL, as in the parent Ab-14, and differs from it in the CDRs of the heavy chain only.
VH: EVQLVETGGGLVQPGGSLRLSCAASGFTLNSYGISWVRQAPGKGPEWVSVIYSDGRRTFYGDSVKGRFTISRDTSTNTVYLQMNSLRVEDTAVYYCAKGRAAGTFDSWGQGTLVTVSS
VL: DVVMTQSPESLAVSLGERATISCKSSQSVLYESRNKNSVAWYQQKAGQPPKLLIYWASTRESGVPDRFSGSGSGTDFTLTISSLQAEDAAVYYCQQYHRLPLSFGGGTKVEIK

The parent's heavy chain CDRs are GFTLNSYGIS, VIYSDGRRTFYGDSVK, GRAAGTFDS; each variant's own CDRs replace them letter for letter. The read-out is the apparent dissociation constant on a log10 scale (nM): the lower, the stronger. "ND" means that the variant was in the library but no mating with the target was seen in that replicate; the authors take this as a sign of poor binding, and no number exists. The parent sequence was in this pool as ten entries: three were never detected, three once, and four in most replicates, with averages from 0.34 to 2.37. The authors averaged sequences with at least three values out of six and counted those with two or fewer as poor binders. A sequence measured in both rounds can read differently, since the two assays cover different ranges. Empty control strains, which show no peptide, gave a signal in 1% of pairings with all heavy chain designs; the median was 2.08 and 95% of these signals were weaker than 0.84. No background was subtracted. Also given: how often the same scFv was detected with the empty control strains, with their mean in brackets.

CDR-H1 | CDR-H2 | CDR-H3 | log10 Kd, replicates | signal with controls
GFDLDEYGIS | VIYADGKRTAYADNVK | GEVAGTFDT | -0.23 / -0.61 / -0.38 / -0.66 / -0.44 / -0.48 | 0 of 18
GFDLNEYGIS | VIYADGRRTAYSDSVK | GNEAGTFDI | -0.73 / -0.64 / ND / 0.22 / -0.71 / -0.29 | 0 of 18
GFDLDEYGIS | VIYADGQRTAYTDSVK | GNNAGTFDV | -1.43 / -0.11 / -1.20 / -1.58 / -1.23 / -1.07 | 0 of 18
GFDLDEYGIS | VIYADGQRTAYADSVK | GNQAGTFDI | 0.24 / 0.18 / 0.04 / -0.12 / 0.31 / 0.11 | 1 of 18 (1.91)
GFDLDEYGIS | VIYADGQRTVYADSVK | GEVAGTFDV | ND / ND / ND / ND / ND / ND | 0 of 18
GFDLEDYGIS | VIYADGMRTAYADSVK | GNVAGTFDV | -0.17 / -0.74 / -0.56 / -0.71 / -0.37 / -0.34 | 0 of 18
GFDLDEYGIS | VIYADGMRTSYADSVK | GNNAGTFDV | 0.41 / 0.00 / -0.23 / -0.51 / -0.30 / 0.39 | 0 of 18
GFDLNEYGIS | VIYADGVRQAYADSVK | GNVAGTFDI | -0.02 / 0.10 / -0.27 / 0.06 / 0.01 / -0.17 | 0 of 18
GFDLDEYGIS | VIYADGQRTFYADSVK | GQNAGTFDV | 0.03 / 0.09 / -0.21 / -0.19 / -0.06 / 0.39 | 0 of 18
GFDLDEYGIS | VIYADGRRTAYADSVK | GNTAGTFDQ | ND / ND / ND / ND / 0.41 / ND | 0 of 18
GFDLDEYGIS | VIYADGMRTAYADSVK | GNVAGTFDL | 0.87 / 0.47 / 1.51 / 0.15 / 0.88 / 0.64 | 0 of 18
GFDLNEYGIS | VIYADGVRTAYVDSVK | GEVAGTFDL | 1.38 / 1.39 / 1.19 / 0.69 / 1.31 / 0.85 | 0 of 18
GFDLDEYGIS | VIYADGRRTAYADSVK | GENAGTFDL | -0.28 / -0.28 / -0.48 / -0.36 / -0.74 / -0.32 | 0 of 18
GFDLNEYGIS | VIYADGMRTSYADSVK | GEVAGTFDT | -0.42 / -0.89 / -0.49 / -0.63 / -0.85 / 0.05 | 0 of 18
GFDLEDYGIS | VIYADGMRTAYSDSVK | GEVAGTFDT | -0.12 / -0.27 / -0.66 / -0.87 / -0.50 / -0.42 | 0 of 18
GFDLNEYGIS | VIYADGMRTYYADSVK | GQNAGTFDM | -0.09 / -0.16 / 0.09 / -0.34 / -0.22 / 0.08 | 0 of 18
GFDLNEYGIS | VIYADGMRTAYADDVK | GQVAGTFDI | -0.11 / -0.40 / -0.48 / -0.54 / -0.51 / -0.41 | 0 of 18
GFDLNEYGIS | VIYADGRRTVYADSVK | GNVAGTFDQ | -0.76 / -0.99 / -0.99 / -1.27 / -0.74 / -1.14 | 1 of 18 (1.57)
GFDLNEYGIS | VIYADGMRTSYADSVK | GGNAGTFDV | 0.07 / -0.52 / -0.66 / -0.02 / -0.17 / -0.25 | 0 of 18
GFDLNEYGIS | VIYADGQRTAYTDSVK | GETAGTFDV | -0.36 / -0.02 / 0.37 / -0.15 / -0.63 / -0.35 | 0 of 18
GFDLNEYGIS | VIYADGMRKAYADDVK | GGNAGTFDV | 0.00 / -0.57 / -1.24 / -1.03 / -1.04 / ND | 0 of 18
GFDLNEYGIS | VIYADGRRTAYADDVK | GEVAGTFDV | -0.33 / -0.44 / -0.59 / -0.76 / -0.27 / -0.30 | 0 of 18
GFDLNEYGIS | VIYADGMRTAYANSVK | GNNAGTFDV | -0.82 / -0.39 / -0.94 / -0.50 / -0.84 / -0.62 | 0 of 18
GFDLDEYGIS | VIYADGMRTVYTDSVK | GENAGTFDV | 0.35 / -0.25 / -0.61 / -0.79 / -0.59 / -0.50 | 0 of 18
GFDLNEYGIS | VIYADGQRTAYADSVK | GSNAGTFDI | -0.12 / 0.00 / -0.46 / -0.21 / -0.60 / 0.30 | 0 of 18
GFDLNEYGIS | VIYADGMRTVYADSVK | GNVAGTFDI | -0.52 / -0.36 / -0.84 / -0.81 / -0.54 / -0.36 | 1 of 18 (1.19)
GFDLNEYGIS | VIYADGQRTAYSDSVK | GNNAGTFDV | -0.20 / -0.55 / -0.67 / -0.82 / -0.67 / -0.47 | 0 of 18
GFDLDEYGIS | VIYADGMRTAYADSVK | GNVAGTFDF | -0.85 / -0.81 / -0.91 / -0.73 / -0.79 / -0.56 | 0 of 18
GFDLNEYGIS | VIYADGVRTAYIDSVK | GETAGTFDV | 0.34 / -0.39 / -0.57 / -0.66 / 0.14 / -0.13 | 0 of 18
GFDLNEYGIS | VIYADGMRTYYADSVK | GQVAGTFDV | -0.64 / -0.55 / -0.81 / -0.74 / -0.91 / -0.46 | 0 of 18
GFDLNEYGIS | VIYADGMRTSYADDVK | GTNAGTFDV | -0.57 / -0.50 / 0.20 / -0.05 / -0.24 / -0.34 | 0 of 18
GFDLNEYGIS | VIYADGQRTVYADSVK | GTNAGTFDV | -0.70 / -0.68 / -0.73 / -1.08 / -0.57 / -0.59 | 0 of 18
GFDLNEYGIS | VIYADGKRTFYADSVK | GTNAGTFDV | -0.83 / -0.80 / -0.72 / -1.11 / 0.25 / -0.41 | 0 of 18
GFDLNEYGIS | VIYADGQRTAYADNVK | GEVAGTFDL | 0.05 / -0.44 / -0.34 / -0.19 / -0.45 / -0.19 | 0 of 18
GFDLNEYGIS | VIYADGRRTAYVDSVK | GNTAGTFDV | -0.37 / 0.20 / -0.10 / -0.59 / -0.51 / 0.23 | 0 of 18
GFDLNEYGIS | VIYADGMRTAYADSVK | GENAGTFDQ | ND / ND / ND / ND / ND / 1.77 | 0 of 18
GFDLDEYGIS | VIYADGSRTAYADSVK | GSNAGTFDV | ND / ND / ND / ND / ND / ND | 0 of 18
GFDLNEYGIS | VIYADGMRKAYADDVK | GENAGTFDI | 0.00 / 0.02 / -0.65 / -0.52 / -0.45 / -0.39 | 0 of 18
GFDLDEYGIS | VIYADGMRTAYSDSVK | GNVAGTFDL | -0.42 / -0.50 / -0.54 / -0.69 / -0.70 / -0.40 | 0 of 18
GFDLNEYGIS | VIYADGMRTAYADSVK | GEVAGTFDV | -0.34 / -0.20 / -0.42 / -0.56 / -0.59 / -0.29 | 0 of 18
GFDLDEYGIS | VIYADGQRTYYADSVK | GENAGTFDL | 0.19 / 0.25 / -0.04 / -0.32 / -0.16 / 0.18 | 0 of 18
GFDLNEYGIS | VIYADGKRTFYADSVK | GNEAGTFDV | -0.31 / -0.17 / -0.46 / -0.57 / -0.24 / -0.35 | 0 of 18
GFDLNEYGIS | VIYADGRRTAYTDSVK | GNVAGTFDQ | -0.31 / -0.81 / -0.78 / -0.87 / -0.82 / -0.63 | 0 of 18

Repeated from above, the 3 best binders with a signal in all replicates:

CDR-H1 | CDR-H2 | CDR-H3 | log10 Kd, replicates | signal with controls
GFDLDEYGIS | VIYADGQRTAYTDSVK | GNNAGTFDV | -1.43 / -0.11 / -1.20 / -1.58 / -1.23 / -1.07 | 0 of 18
GFDLNEYGIS | VIYADGRRTVYADSVK | GNVAGTFDQ | -0.76 / -0.99 / -0.99 / -1.27 / -0.74 / -1.14 | 1 of 18 (1.57)
GFDLDEYGIS | VIYADGMRTAYADSVK | GNVAGTFDF | -0.85 / -0.81 / -0.91 / -0.73 / -0.79 / -0.56 | 0 of 18